The source made the active and inactive calls. The calls are words filed in the database; no cut-off is given here.
Legend:
A549 = test: Antiproliferative activity against Wnt-independent human A549 cells assessed as inhibition of cell growth incubated for 48 hrs by CCK-8 assay; type: functional, cell-based
HEK293 = test: Antiproliferative activity against Wnt-independent human HEK293 cells assessed as inhibition of cell growth incubated for 48 hrs by CCK-8 assay; type: functional, cell-based
CT26 [1] = test: Antitumor activity against mouse CT26 cells implanted in BALB/c mouse assessed as increase in tumor infiltration ratio of IFN-gamma to B+ CD8+ cells at 30 mg/kg, ip measured for 14 days by flow cytometry analysis; type: functional, organism-based; conditions: time 14.0 day
MC-38 = test: Antiproliferative activity against mouse MC38 cells assessed as inhibition of cell growth incubated for 48 hrs by CCK-8 assay; type: functional, cell-based
CT26 [2] = test: Antitumor activity against mouse CT26 cells implanted in BALB/c mouse assessed as upregulation of psmb8 expression in tumor at 30 mg/kg, ip measured for 14 days by qPCR analysis; type: functional, organism-based; conditions: time 14.0 day
HCT-116 = test: Antiproliferative activity against Wnt-dependent human HCT-116 cells assessed as inhibition of cell growth incubated for 48 hrs by CCK-8 assay; type: functional, cell-based
CT26 [3] = test: Antitumor activity against mouse CT26 cells implanted in BALB/c mouse assessed as upregulation of Btk expression in tumor at 30 mg/kg, ip measured for 14 days by qPCR analysis; type: functional, organism-based; conditions: time 14.0 day
RKO = test: Antiproliferative activity against Wnt-independent human RKO cells assessed as inhibition of cell growth incubated for 48 hrs by CCK-8 assay; type: functional, cell-based
CT26 [4] = test: Antitumor activity against mouse CT26 cells implanted in BALB/c mouse assessed as upregulation of H2-Aa expression in tumor at 30 mg/kg, ip measured for 14 days by qPCR analysis; type: functional, organism-based; conditions: time 14.0 day
CT26 [5] = test: Antitumor activity against mouse CT26 cells implanted in BALB/c mouse assessed as upregulation of IRF1 expression in tumor at 30 mg/kg, ip measured for 14 days by qPCR analysis; type: functional, organism-based; conditions: time 14.0 day
CT26 [6] = test: Antiproliferative activity against Wnt-dependent mouse CT26 cells assessed as inhibition of cell growth incubated for 48 hrs by CCK-8 assay; type: functional, cell-based
B16 = test: Antiproliferative activity against mouse B16 cells assessed as inhibition of cell growth incubated for 48 hrs by CCK-8 assay; type: functional, cell-based
CT26 [7] = test: Antitumor activity against mouse CT26 cells implanted in BALB/c mouse assessed as upregulation of STAT1 expression in tumor at 30 mg/kg, ip measured for 14 days by qPCR analysis; type: functional, organism-based; conditions: time 14.0 day
SW480 = test: Antiproliferative activity against Wnt-dependent human SW480 cells assessed as inhibition of cell growth incubated for 48 hrs by CCK-8 assay; type: functional, cell-based

CC(C)(Oc1cccc(N2CCC[C@@H](NC(=O)N(Cc3ccc(-c4cn[nH]c4)cc3)C3CC3)C2)c1)C(=O)NCCCN
Activity (A549): inactive
Activity (HEK293): inactive
Activity (CT26 [1]): Active
Activity (MC-38): Active
Activity (CT26 [2]): Active
Activity (HCT-116): Active
Activity (CT26 [3]): Active
Activity (RKO): inactive
Activity (CT26 [4]): Active
Activity (CT26 [5]): Active
Activity (CT26 [6]): Active
Activity (B16): Active
Activity (CT26 [7]): Active
Activity (SW480): Active

Source: ChEMBL document CHEMBL5550183, “Discovery of Novel 1-Phenylpiperidine Urea-Containing Derivatives Inhibiting β-Catenin/BCL9 Interaction and Exerting Antitumor Efficacy through the Activation of Antigen Presentation of cDC1 Cells” (J Med Chem, 2024)
